Values of other authors as cited in paper PMC7376644 (Pharmacology Research & Perspectives, 2020).

Settings: PZQ metabolism inhibited by KTZ; cited from earlier work

For X‐hydroxy praziquantel [X‐OH PZQ], the “Reduction of exposure with KTZ” value is given as 57%.
